Measurements: patent publication US5438056A (priority 1993, dated 1995)

The chains behind the UniProt entries cited, without tags or fusion partners. Residues count along the entry.
UniProt P19835, 21-753 limits assumed: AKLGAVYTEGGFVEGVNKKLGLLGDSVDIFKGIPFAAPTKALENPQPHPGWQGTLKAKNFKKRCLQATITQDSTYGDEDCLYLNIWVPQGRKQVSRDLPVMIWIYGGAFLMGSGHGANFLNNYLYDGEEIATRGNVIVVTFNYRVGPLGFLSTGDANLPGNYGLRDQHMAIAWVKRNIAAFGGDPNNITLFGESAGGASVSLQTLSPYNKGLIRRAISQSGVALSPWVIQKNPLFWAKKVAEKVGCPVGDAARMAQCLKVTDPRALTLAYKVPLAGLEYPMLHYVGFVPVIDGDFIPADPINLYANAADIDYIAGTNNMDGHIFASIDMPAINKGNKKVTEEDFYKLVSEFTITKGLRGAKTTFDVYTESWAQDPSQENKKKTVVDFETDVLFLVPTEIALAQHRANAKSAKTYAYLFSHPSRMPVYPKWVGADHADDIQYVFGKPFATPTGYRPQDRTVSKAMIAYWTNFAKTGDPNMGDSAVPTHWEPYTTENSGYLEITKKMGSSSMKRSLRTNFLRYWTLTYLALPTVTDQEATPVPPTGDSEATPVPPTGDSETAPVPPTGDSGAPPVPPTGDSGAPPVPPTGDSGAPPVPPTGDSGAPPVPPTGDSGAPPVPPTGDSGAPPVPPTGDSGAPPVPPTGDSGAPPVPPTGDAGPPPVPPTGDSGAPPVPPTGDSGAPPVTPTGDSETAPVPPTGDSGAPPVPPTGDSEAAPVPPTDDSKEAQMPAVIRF

Biological target: cholesterol ester hydrolase (Homo sapiens, UniProt P19835)
Test: IC50 against CEH (cholesterol ester hydrolase), in vitro
Assay type: biochemical
Details: read-out: IC50 against CEH

`CCCCNC(=O)ON=c1c2ccccc2oc2ccccc12` showed an IC50 of 600 nM.
Compound `CCCCNC(=O)ON=C(c1ccc(N(C)C)cc1)c1ccccn1` [Example 20] has an IC50 of 4600 nM.
